Measurements published in patent US20200030278A1, “PHARMACEUTICAL COMPOSITIONS OF METAP-2 INHIBITORS” (Zafgen, Inc., priority 2017, published 2020).
Entries after “also recorded” stand apart in the source; their conditions may differ. Read-outs that look alike come from different tables or passages of the source.

Amino acid sequences for entries named in this document (tags omitted). A change or cut given only in a name is not applied to a line headed by its entry.
UniProt P38062: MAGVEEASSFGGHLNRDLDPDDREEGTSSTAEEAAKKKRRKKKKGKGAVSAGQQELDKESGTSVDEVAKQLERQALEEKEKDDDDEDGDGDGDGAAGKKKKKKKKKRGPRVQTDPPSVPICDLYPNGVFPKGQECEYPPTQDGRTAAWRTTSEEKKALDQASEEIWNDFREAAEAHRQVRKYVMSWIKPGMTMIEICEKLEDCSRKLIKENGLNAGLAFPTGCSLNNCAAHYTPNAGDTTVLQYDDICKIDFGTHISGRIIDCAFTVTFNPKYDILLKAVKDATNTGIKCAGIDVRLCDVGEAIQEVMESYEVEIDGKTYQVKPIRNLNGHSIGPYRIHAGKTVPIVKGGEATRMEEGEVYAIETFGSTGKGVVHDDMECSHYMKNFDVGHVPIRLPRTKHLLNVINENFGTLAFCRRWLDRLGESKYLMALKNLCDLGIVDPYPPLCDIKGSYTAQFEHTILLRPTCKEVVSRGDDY

Legend:
[1] = Pharmacokinetics after subcutaneous administration in humans; type: in vivo, Human
Source text: The pharmacokinetic profiles following intravenous administration of beloranib or Compound A reflect differences in how each compound is distributed and cleared that are independent of pharmaceutical properties that affect absorption from subcutaneously administered compound. In rat and dog studies with intravenous administration, Compound A has a lower Vdss and a higher CL than beloranib, as shown in Table 2. Although Compound A has not been administered to humans intravenously, the rapid absorption profile observed with subcutaneous dosing permits estimation of Vdss and CL in humans for comparison with intravenous PK of beloranib, as shown in Table 3. Similar to non-clinical species, Compound A has a lower Vdss and a higher CL than beloranib. Thus, similar differences in the pharmacokinetic properties of Compound A and beloranib have been observed in non-clinical toxicology species and humans.
Assessment of differences in pharmacokinetics following subcutaneous administration reflect both differences in the pharmacokinetic properties of the compounds and differences in pharmaceutical factors that affect absorption of the formulations from the injection sites. […] In all cases, Tmax was marked shorter and Cmax was much higher for Compound A, while AUC was similar (note: results for dog have not been normalized for dose).

[2] = Tissue distribution of radiolabeled compounds in rats after subcutaneous administration; type: in vivo
Source text: Beloranib was extensively (>95%) bound to plasma proteins in blood from all non-clinical species tested and humans. However, Compound A was markedly less bound to plasma proteins (40-70% in rat and dog and 25-35% in human) and binding tended to decrease with increasing concentration, as shown in Table 6. The higher unbound fraction of Compound A may have contributed to the more rapid clearance of Compound A in pharmacokinetic studies, and to differences in tissue distribution. The tissue distribution of beloranib and Compound A was investigated in rats using radiolabeled compounds. Data from a long-term whole body autoradioluminography (WBAL) study with beloranib dosed subcutaneously at 1 mg/kg was compared with data from a short-term tissue dissection (TD) study with Compound A dosed subcutaneously at 6 mg/kg. For this assessment, the results from the Compound A study were normalized (assuming direct linearity) to a 1 mg/kg dose.

MetAP-2 = MetAP-2 (Rattus norvegicus, UniProt P38062); settings: rat model
[3] = Protein binding in dog plasma (dialysis); type: in vitro ADME; settings: read-out: % Bound (Mean) (converted)
[4] = Protein binding in human plasma (dialysis); type: in vitro ADME; settings: read-out: % Bound (Mean) (converted)
plasma proteins = assay: Plasma protein binding, summary over species; type: in vitro ADME
[5] = Toxicology study in the rat, s.c. Q3D for 28 days; type: in vivo, Sprague Dawley rats; settings: rats, ≥2 mg/kg s.c. Q3D, 4 weeks
Procedure: Male and female Sprague Dawley rats 9-10 weeks of age (Envigo RMS, Inc., Indianapolis, Ind. or Orient Bio Inc., Gyeonggi-do, South Korea) were individually housed at the testing facility. Rats (n=15/group) received Compound A (2, 6, 25 mg/kg, or vehicle) Q3D for 28 days. […]. Animals were allocated to treatment groups based on body weight, and body weight and food consumption were recorded weekly. […] At necropsy, macroscopic pathologic findings were recorded, sperm motility and morphology were determined, selected organs were weighed, and selected tissues were collected for microscopic examination.

## CO[C@@H]1[C@H](OC(=O)N2CC(CCN3CCOCC3)C2)CC[C@]2(CO2)[C@H]1[C@@]1(C)O[C@@H]1CC=C(C)C [Compound A]
[1]; 2.4 mg subcutaneous dose, four hours after dosing
  plasma concentration relative to Cmax: less than 2 % of the Cmax
[2]
  duration of high levels of exposure to the tissues relative to beloranib: much shorter
  radioactivity in kidney and liver relative to beloranib: similar
[2]; dose-normalized
  radioactivity in fat and bone relative to beloranib: higher
MetAP-2
  MetAP-2 binding in target tissues: bound MetAP-2 effectively

## CO[C@@H]1[C@H](OC(=O)/C=C/c2ccc(OCCN(C)C)cc2)CC[C@]2(CO2)[C@H]1[C@@]1(C)O[C@@H]1CC=C(C)C [beloranib, reference compound]
[1]; 2 mg subcutaneous dose, 24 hours after dosing
  plasma concentration relative to Cmax: approximately 5.6 % of Cmax
[1]; 2 mg subcutaneous dose, four hours after dosing
  plasma concentration relative to Cmax: approximately 50 % of Cmax
[3]; 60 nM
  fraction unbound at 60 nM: 0.052
[3]; 120 nM
  fraction unbound at 120 nM: 0.0522
[3]; 240 nM
  fraction unbound at 240 nM: 0.0466
[3]; All concentrations
  fraction unbound: 0.051
[4]; 30 nM
  fraction unbound at 30 nM: 0.0508
[4]; 240 nM
  fraction unbound at 240 nM: 0.048
[4]; 480 nM
  fraction unbound at 480 nM: 0.0472
[4]; 1000 nM
  fraction unbound at 1000 nM: 0.0536
[4]; All concentrations
  fraction unbound: 0.0508
Plasma proteins; human, blood from all non-clinical species tested and humans, read-out: bound to plasma proteins
  fraction bound to plasma proteins: < 0.05
Plasma proteins; summary, species not specified, read-out: Plasma protein binding (converted)
  fraction bound to plasma proteins: 0.05
[2]; radiolabeled compounds, tissues generally (e.g. testis)
  Peak and residual radioactivity in tissues, beloranib relative to dose-normalized Compound A: 2-5 fold
[5]
  Histopathology, target organs: finding, grade: Spleen: decreased cellularity,; also recorded: Bone marrow: decreased; also recorded: Thymic atrophy: lymphoid; also recorded: Testes: germ cell
